Conditions: water

Aqueous solubility: > 10 mg/mL
Substance: 3'/4'-((N-Carboxymethyl)carbamoyloxy)-3,4'(3'),5,7-tetrahydroxy-flavone, N-Methyl-D-glucamine salt

Source: patent US6258840A, “Analogues or derivatives of quercetin (prodrugs)” (Cobra Therapeutics Limited, priority 1996, dated 2001)
